Measurements from ChEMBL document CHEMBL5137096, “Antiviral Profiling of C-18- or C-19-Functionalized Semisynthetic Abietane Diterpenoids” (J Nat Prod, 2022).

Tested on: dengue virus type 2
Assay: Antiviral activity against DENV2 infected in hamster BHK-21 cells assessed as inhibition of plaque formation by measuring reduction in PFU per well incubated for 6 days by crystal violet staining based assay
Assay type: functional
Conditions: time 6 day

Q: With `NC(=O)c1ncn([C@@H]2O[C@H](CO)[C@@H](O)[C@H]2O)n1` [RIBAVIRIN] as the molecule, how does the EC read?
A: 5 µg/mL
